Test results reported in ChEMBL document CHEMBL1143666 (J Med Chem, 2007).
Some compounds may have been tested in ways that are not shown here.

How the values were obtained:
MCF7 = assay: Antiproliferative activity against human MCF7 cells by MTS assay; format: functional, cell-based
BT-474 = assay: Antiproliferative activity against human BT474 cells by MTS assay; format: functional, cell-based

`COc1ccc(I)c(Cc2nc3c(N)ncnc3n2CCNCC(C)(C)C)c1` was tested, and the IC50 (MCF7) was 500 nM and the IC50 (BT-474) was 100 nM.
